# Measurements as given in PubChem BioAssay AID912 (National Center for Advancing Translational Sciences (NCATS), 2007).
# The entries are a selection whose mix differs from that of the whole data set. Records with an inconclusive call do not appear. The source made the active and inactive calls. The call rests on the fitted dose curve.
# Assay: qHTS Assay for Anthrax Lethal Toxin Internalization; further: nearly all actives have a fitted effect of over 50% in size
# Settings: Cells, FRET ratio (460/530); at 40 µM (top of the series)
# On the % scale 0 is the no-effect control and ±100 the full control effect.
row,SMILES,"activity change, negative = inhibition"
1,CN(CCCl)CCCl,inactive: -4.76%
2,O=[N+]([O-])C(Cl)(Cl)Cl,inactive: 3.07%
